Data: patent US8426138B2 (priority 2006, dated 2013)
Where two headings read alike, the source gives them in different places.

Amino acid sequences for entries named in this document (tags omitted).
UniProt P29754, whole entry: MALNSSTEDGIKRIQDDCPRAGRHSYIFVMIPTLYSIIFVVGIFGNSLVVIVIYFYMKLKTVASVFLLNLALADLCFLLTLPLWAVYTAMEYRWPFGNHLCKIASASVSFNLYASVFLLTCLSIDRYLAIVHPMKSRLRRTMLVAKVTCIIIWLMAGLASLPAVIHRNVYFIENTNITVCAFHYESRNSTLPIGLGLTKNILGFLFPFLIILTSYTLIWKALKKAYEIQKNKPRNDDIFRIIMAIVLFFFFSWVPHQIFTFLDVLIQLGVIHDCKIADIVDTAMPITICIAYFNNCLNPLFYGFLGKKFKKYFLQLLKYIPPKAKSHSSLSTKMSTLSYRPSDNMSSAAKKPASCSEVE

Biological target: Angiotensin II receptor 1a (AT1a) (Mus musculus, UniProt P29754)
Settings: 2 hr
From the text: Plasmids. […] Other FYVE domains were generated similarly by RT-PCR^˜. […] To generate a β2AR-eYFP-α construct, the eYFP-α fragment was subcloned into the β2AR-ωplasmid using Xhol and HindIII. The Angiotensin receptor 1a was derived by RT-PCR from C57/BI6 mouse brain RNA using primers for the entire coding sequence, minus the stop codon; it was cloned N-terminally to eYFP-α or ω with MfeI and XhoI. […] Finally, to generate fusion proteins with β-arrestin, the full coding sequence of human β-arrestin B2 was PCR amplified from a cDNA clone and inserted into the Mfel-XhoI sites of the ω and eYFP-α vectors.
Assays and cell preparation. […] LysoTracker Red and Texas Red-labeled transferrin were purchased from Molecular Probes. The Kinase/Phosphatase Inhibitor Library was purchased from BIOMOL, and the Mechanistic and Diversity Compound Libraries were provided by the Developmental Therapeutics Program of the National Cancer Institute. Cells were plated and grown to confluency in 96-well white tissue culture dishes (Corning Costar), in 100 μl of growth media. Dose-response curves were generated by adding the respective ligand to the media and incubating for 2 h at 37° C. […]

Substance: angiotensin II
- EC50 (read-out: EC50, arrestin-binding activation assay): 2.4 nM
- EC50 (read-out: EC50, internalization assay): 3.3 nM
